Assay results reported in patent US8303964B2, “Viable non-toxic gram-negative bacteria” (priority 2006, dated 2012).
Read-outs that look alike come from different tables or passages of the source.

Test system: KPM22
Format: cell-based, E. coli
Protocol: The antibiotics used were from Sigma with the exception of cephaloridine, which was obtained from MicroSource Discovery Systems. Antibiotics were chosen based on their varying mode of action and entry into the cell. […] Colonies from LB agar plate were scraped and suspended in media (˜10^4 cells per mL) with varying concentrations of antibiotics. Cultures were incubated with shaking (˜200 rpm) at 37° C. for 18 hours at which point growth was scored by visual inspection.

For `CC[C@H]1OC(=O)[C@H](C)[C@@H](O[C@H]2C[C@@](C)(OC)[C@@H](O)[C@H](C)O2)[C@H](C)[C@@H](O[C@@H]2O[C@H](C)C[C@H](N(C)C)[C@H]2O)[C@](C)(O)C[C@@H](C)C(=O)[C@H](C)[C@@H](O)[C@]1(C)O` [Erythromycin], which “Fold Difference in MIC” value is on record?
Its value is 128 fold.

With `CO[C@@H]1[C@@H](OC(N)=O)[C@@H](O)[C@H](Oc2ccc3c(O)c(NC(=O)c4ccc(O)c(CC=C(C)C)c4)c(=O)oc3c2C)OC1(C)C` [Novobiocin] as the molecule, how does the “Fold Difference in MIC” value (MIC BW30270 versus MIC KPM22) read?
The value was 256 fold.
